Measured values as given in the Human Domainome abundance scans (Beltran et al. 2025).

B1: Tyrosine-protein kinase ABL1, residues 64 to 120; numbered along this chain, P00519 (parent)
chain: NLFVALYDFVASGDNTLSITKGEKLRVLGYNHNGEWCEAQTKNGQGWVPSNYITPVN

Variants of: B1
Experiment: abundance fitness (aPCA) (normalised: wild type 0, dead -1); higher = more abundant; growth selection in yeast, the domain comes from the species named
Settings: Homo sapiens

Abundance fitness: each site, then its substitutions
K21: S -0.299; A 0.01; Q 0.058; P -0.837; T -0.289; W -0.682; I -0.951; C -0.302; N -0.003; E -0.106; G -0.353; M -0.19; L 0.085; V -0.234; Y -0.171; H 0.75; R -0.159
V27: L -0.087; I -0.055; Q -0.706; C -0.175; H -0.435; M 0.023; G -0.389; E -0.996; A -0.148; K -0.647; S -0.21; T -0.322; P -0.2; N -0.334
N15: S -0.001; Q 0.031; T -0.047; V -0.142; I 0.287; G 0.078; F -0.216; E -0.008; P -0.34; K 0.207; W -0.021; A 0.097; D -0.013; R -0.007; H -0.087; Y -0.352; L -0.16; C 0.045; M 0.095
Y7: I 0.076; P -0.943; G -0.002; R 0.199; N -0.006; K 0.261; T -0.052; M -0.132; H 0.009; V -0.036; Q 0.051; F 0.089
R26: H -0.015; G -0.133; Q -0.394; L -0.07; C -0.202; S 0.034; D 0.088; F -0.399; T 0.274; E 0.087; W -0.094; V -0.1; P -0.892; K 0.311; I -0.131; N 0.658
T20: L 0.034; G -0.221; A -0.063; I 0.322; N -0.085; P -0.82; V -0.041; R -0.145; C -0.157; W -0.291; Q 0.158; D -0.341; S -0.104; K -0.358; F -0.351; M -0.233; H -0.28
T16: V 0.433; Q 0.602; P -0.174; I -0.35; R -0.234; W -0.215
S18: P -0.054; R 0.204; N -0.71; E -0.267; W -0.743; F 0.038; M -0.011; D -0.025; K -0.307; I -0.012; Q 0.129; H -0.024; V -0.254; G -0.067; L -0.15; C 0.027
L17: H -0.233; Q -0.318; Y 0.148; V -0.165; D -0.765; F -0.411; N -0.308; W -0.051; P -0.4; S -0.827; M 0.125; K -0.455; C -0.059; I -0.389; T -0.155; R -0.369; A -0.089; E -0.822
S12: N -0.035; K -0.096; H -0.442; M 0.237; E 0.071; I -0.248; P 0.148; A 0.125; Y -0.55; T -0.352; W -0.336; F -0.469; L -0.099; G -0.032; V -0.194; C -0.298; R -0.027; Q -0.459
F9: N -0.444; E -0.796; R -0.19; P -0.953; D -0.834; S -0.367; V 0.033; L -0.042; A -0.051; T -0.403; M -0.242; W -0.105; Y -0.088; G -0.704; I -0.066; Q -0.187; H -0.467; C -0.015; K -0.239
D14: G -0.139; W -0.28; Q -0.049; M -0.202; R 0.067; K -0.195; P -0.13; F -0.312; V -0.058; T 0.008; L -0.362; H -0.237; C 0.054; E -0.197; S -0.059; Y -0.639; N 0.013
V10: F 0.051; L -0.15; A -0.029; E 0.022; H 0.209; Y -0.335; K 0.039; N 0.096; Q 0.212; P -0.126; I 0.022; T -0.034; W -0.161; M 0.099; D -0.398; S -0.088; R -0.044; C -0.162
E23: L -0.727; D 0.062; V -0.477; M -0.179; P -1.13; K -0.607; N -0.569; W -0.877; A -0.397; T -0.404; H -0.618; C -0.24; Q -0.11
D8: T -0.051; K -0.333; N -0.064; R -0.444; L -0.956; P -0.109; W -0.843; C -0.494; S -0.105; A -0.065; V -1.18; M -0.883; G -0.33; E -0.175; Q -0.11
L25: N -0.877; H -0.874; W -1.11; M -0.077; D -0.774; Q -0.989; I -0.132; Y -0.065; T -0.391; C -0.038; R -0.879; E -0.998; G -0.108; A -0.345; V 0.013; K -0.701
K24: P -0.493; T -0.291; S -0.086; W -0.326; C -0.562; H -0.198; R -0.006; D -0.245; A -0.504; I -0.241; L -0.519; F -0.446; G -0.159; Y -0.262; Q -0.559; N -0.707
G22: Y -0.378; C -0.291; D 0.15; P -1.1; L -0.753; Q -0.626; R -0.449; N -0.385; H -0.473; W -0.669; A -0.315; V -0.973; S -0.243; M 0.121; T -1.13; K -0.404
A11: T -0.021; P -0.194; L -0.275; R -0.094; D -0.067; M -0.124; K -0.015; V -0.396; W -0.455; G -0.17; H -0.203; C -0.107; E -0.154; Q -0.148; N -0.182; S -0.287; Y -0.298
G13: N 0.11; F -0.136; I 0.176; Y -0.201; P -0.366; C -0.113; V -0.115; D 0.141; M -0.145; Q -0.017; W -0.35; K 0.169; R -0.042; E 0.001; A 0.002; L -0.123
I19: P -0.982; Y -1.05; V -0.187; F -0.152; K -0.643; Q -0.941; G -0.696; R -1.01; A -0.507; H -0.939; W -1.08; D -0.789; S -0.941; C -0.149; M -0.118; L -0.013; N -1.01; T -0.318
